# Measurements as given in ChEMBL document CHEMBL1177672, “Discovery of orally available spirodiketopiperazine-based CCR5 antagonists” (Bioorg Med Chem, 2010).
# Sequences of proteins named here, by UniProt entry; tags and fusion partners are left off.
# UniProt P51681, whole entry: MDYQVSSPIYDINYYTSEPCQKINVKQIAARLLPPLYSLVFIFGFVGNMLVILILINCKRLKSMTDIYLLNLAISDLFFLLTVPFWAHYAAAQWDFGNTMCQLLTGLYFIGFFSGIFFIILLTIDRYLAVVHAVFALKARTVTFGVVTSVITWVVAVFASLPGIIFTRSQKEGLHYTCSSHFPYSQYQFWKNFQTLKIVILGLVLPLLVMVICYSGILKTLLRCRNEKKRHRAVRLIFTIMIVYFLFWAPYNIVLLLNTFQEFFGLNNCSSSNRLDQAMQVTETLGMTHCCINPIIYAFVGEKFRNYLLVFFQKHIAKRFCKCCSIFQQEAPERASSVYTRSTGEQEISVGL
# Molecular target: C-C chemokine receptor type 5 (Homo sapiens, UniProt P51681)
# Experiment: Antagonist activity at human CCR5 receptor expressed in CHO cells assessed as inhibition of MIP-1-alpha-stmulated calcium mobilization
# Format: functional, cell-based
smiles,measurement,value
CCCCN1C(=O)[C@H](CC2CCCCC2)NC(=O)C12CCN(Cc1ccc(Oc3ccc(C(=O)O)cc3)cc1)CC2.Cl,IC50,13 nM
